Chains of the proteins cited; added tags and fusions are not shown.
UniProt P35462, whole entry: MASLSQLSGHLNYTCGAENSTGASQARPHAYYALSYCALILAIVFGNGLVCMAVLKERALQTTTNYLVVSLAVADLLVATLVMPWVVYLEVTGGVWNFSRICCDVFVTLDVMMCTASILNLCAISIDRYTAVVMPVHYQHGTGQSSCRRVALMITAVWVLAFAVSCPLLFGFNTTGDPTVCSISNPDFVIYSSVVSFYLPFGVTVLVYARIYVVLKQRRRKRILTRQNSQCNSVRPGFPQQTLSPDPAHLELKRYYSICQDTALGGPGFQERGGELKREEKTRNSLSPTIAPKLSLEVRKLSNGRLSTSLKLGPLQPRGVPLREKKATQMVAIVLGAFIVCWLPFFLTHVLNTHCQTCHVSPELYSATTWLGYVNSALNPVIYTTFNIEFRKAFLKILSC

In ChEMBL document CHEMBL1128298, “Synthesis and evaluation of pharmacological and pharmacokinetic properties of monopropyl analogs of 5-, 7-, and 8-[[(trifluoromethyl)sulfonyl]oxy]-2-aminotetralins: central dopamine and serotonin receptor activity” (J Med Chem, 1995):

Biological target: D(3) dopamine receptor (Homo sapiens, UniProt P35462)
Assay: In vitro binding affinity towards Dopamine receptor D3 by using [3H]spiperone as radioligand
Outline: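 Radioligand competition binding at cloned mammalian receptors expressed in CHO-K1 cells, 1 h at room temperature, pH 7.4. Ligands: 5-HT1A [3H]-8-OH-DPAT 1 nM in 50 mM Tris/10 mM MgCl2. 5-HT1Dα/β [3H]-5-HT 1.7 nM in Tris/MgCl2/EDTA/0.1% ascorbate. D2 [3H]U86170 1 nM in 20 mM HEPES/10 mM MgSO4. D3 [3H]spiperone 0.5 nM in HEPES/MgCl2/NaCl/EDTA. Filtration and scintillation counting; 11 concentrations in duplicate; IC50 by nonlinear fit converted to Ki via Cheng–Prusoff.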

CCCN(CCC)[C@@H]1CCc2cccc(O)c2C1
Ki: 179 nM
